This is a sample that favours compounds with a hit; in the whole collection about 1.3% have one here.
KCNH2 WT inh: blocks the wildtype human KCNH2 potassium channel; Q12809; U2OS, BacMam KCNH2, thallium flux FluxOr; active compounds read low; activity change, % at 1.84 µM; actives 0.37% (n = 340,000); AID 720551;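 active = maximum activity change below -70%; inconclusive = maximum activity change between -70% and -50%; inactive = maximum activity change above -50%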; also: % is scaled to controls: 0 for no effect and ±100 for the full control effect
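U2OS cells transduced with wild-type KCNH2 virus are loaded with FluxOr dye for 45 min, and thallium flux is measured in kinetic reads before and after stimulation buffer. Rate constants are normalized to DMSO controls.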
KCNH2 3.1 block: blocks the human KCNH2 3.1 channel isoform; U2OS KCNH2 3.1, thallium flux FluxOr; active compounds read low; activity change, % (tested at about 1.8 µM); actives 0.95% (n = 340,000);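 active = maximum activity change below -70%; inconclusive = maximum activity change from -70% to -50%; inactive = maximum activity change above -50%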;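 also: thallium influx rate constant from kinetic fluorescence after stimulation buffer; % is scaled to controls: 0 for no effect and ±100 for the full control effect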
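Kinetic fluorescence (2 min after stimulation buffer) measures Tl+ influx through KCNH2 3.1 expressed by viral transduction in U2OS cells; the rate constant is normalized against DMSO controls serving as positive and negative references.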
Rango-impB inh: inhibitors of Rango-importin beta complex formation | Potency, µM (doses to about 92.2 µM), inactives show at the top dose inhibition of complex formation | Q14974 | Rango CFP/YFP FRET sensor + importin beta, 45 min | actives 0.031% (n = 340,000);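 also: potency is read from the fitted curve at half-maximal effect; 0% = DMSO wells and 100% = buffer wells lacking importin beta; nearly all actives have a fitted effect of over 15% in size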
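FRET biosensor Rango (snurportin 1 IBB between N-terminal EYFP and C-terminal Cerulean), 50 nM in PBS/1 mM DTT/0.02% Tween-20/0.1% BSA, preincubated 5 min RT with compound; 0.125 microM importin beta added, 45 min RT, CFP/YFP FRET ratio read.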
Rango release inh: inhibitors of RanGTP-induced Rango-importin beta complex dissociation | Potency, µM (top dose mostly 46.1 µM), for inactives: at the highest dose activity change, negative = inhibition | Biochemical FRET Rango-importin beta, RanGTP-induced dissociation | actives 0.071% (n = 340,000) | AID 540253 | O95149+P62826; also: potency is read from the fitted curve at half-maximal effect; % of control where 0% means no effect; nearly all actives have a fitted effect of over 45% in size
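Rango FRET biosensor (snurportin-1 IBB flanked by N-terminal EYFP and C-terminal CFP10) at 0.1 uM, with 0.25 uM importin beta in PBS, 1mM DTT, 0.02% Tween-20, 0.1% BSA. 0.6 uM Ran, 2mM GTP and 0.2 uM RCC1 were then added for 45 min at room temperature. Inhibition read as loss of FRET rise.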
An asterisk follows results filed as active; ? = inconclusive; nt = no result given. Unless noted, calls follow the shape of the full dose curve.

Short keys – A = KCNH2 WT inh; B = KCNH2 3.1 block; C = Rango-impB inh; D = Rango release inh
CC(=O)Nc1ccc(OCC(O)Cn2cccn2)cc1 (centres undefined)
  A: -1.1	B: -200.9*	C: -0.1%	D: -5.7%
CC(=O)Nc1ccc(OCC(O)Cn2ccnc2)cc1 (centres undefined)
  A: 7.1	B: 9.1	C: -2.6%	D: 6.4%
Cc1cc([N+](=O)[O-])c2ccccc2c1NS(=O)(=O)c1ccccc1
  A: -3.1	B: 27.2	C: -0.4%	D: 0.4%
COc1ccc2c(c1)C(=O)N1[C@H]3c4cc(Cl)ccc4OC[C@@H]3[C@H](c3ccccc3)[C@]1(C)C(=O)N2
  A: -31.9	B: -85.0*	C: -1.0%	D: -5.4%
COc1ccc2c(c1)OC[C@H]1[C@H]2N2C(=O)CN(Cc3ccc(C)cc3)C(=O)[C@@]2(C)[C@H]1c1ccccc1
  A: -5.4	B: -88.9*	C: 0.2%	D: -10.6%
COc1ccc2c(c1)OC[C@H]1[C@H]2N2C(=O)CN(Cc3ccc(F)cc3)C(=O)[C@@]2(C)[C@H]1c1ccccc1
  A: 3.2	B: -8.4	C: 0.1%	D: 1.5%
COc1ccc2c(c1)[C@H]1[C@H](CO2)[C@H](c2ccccc2)[C@]2(C)C(=O)Nc3cc(Cl)ccc3C(=O)N12
  A: -13.3	B: -8.6	C: ?	D: 18.6%
COCCCN(C(=O)c1cc(C)oc1C)c1c(N)n(CC(C)C)c(=O)[nH]c1=O
  A: -22.7	B: -10.1	C: -1.3%	D: 9.4%
CCCCCCCNC(=O)C1(CC2CC(c3cccc(Br)c3)=NO2)CCNCC1 (centres undefined)
  A: -7.9	B: -77.2*	C: -0.3%	D: -1.4%
CCCCCCCNC(=O)C1(CC2CC(c3cccc(Br)c3)=NO2)CCN(C(=O)c2ccccc2)CC1 (centres undefined)
  A: -70.5*	B: ?	C: 1.5%	D: 0.1%
CCCCCCCNC(=O)C1(CC2CC(c3ccccc3)=NO2)CCN(C(=O)c2ccccc2)CC1 (centres undefined)
  A: -18.7	B: -37.2	C: 8.6%	D: 8.4%
Nc1nnc(-c2cccc([N+](=O)[O-])c2)o1
  A: -92.0*	B: 5.3	C: 0.1%	D: -1.2%
O=[N+]([O-])c1cccc(-c2nnc(C3CC3)o2)c1
  A: -16.0	B: -3.4	C: 0.0%	D: -7.6%
OC(Cc1ccnc2ccccc12)C(Cl)(Cl)Cl (centres undefined)
  A: -2.6	B: 1.5	C: 1.5%	D: -3.3%
O=C(CN1CCOCC1)Nc1ccc(Cl)cn1
  A: -8.7	B: -3.0	C: 1.6%	D: 4.4%
O=[N+]([O-])c1ccc(S(=O)(=O)N2CCN(c3ccnc4cc(Cl)ccc34)CC2)cc1
  A: -123.6*	B: -92.4*	C: -3.1%	D: 5.6%
O=S(=O)(c1cccc(Br)c1)N1CCN(c2ccnc3cc(Cl)ccc23)CC1
  A: 34.5	B: nt	C: -0.3%	D: 17.4%
CC(C)(C)C(=O)N1CCN(c2ccnc3cc(Cl)ccc23)CC1
  A: 5.3	B: -32.4	C: -0.3%	D: 8.1%
CC(=O)c1ccc(N2CCN(c3ccnc4cc(Cl)ccc34)CC2)cc1
  A: -28.5	B: -90.7*	C: -0.3%	D: 14.9%
COc1ccccc1C(=O)N/C(=C\c1cn(S(=O)(=O)N(C)C)c2ccccc12)C(=O)N1CCN(C)CC1
  A: -6.2	B: -4.2	C: nt	D: nt
CCc1cc(C=NC2CCCCC2)c(O)s1
  A: -135.3*	B: 11.4	C: 0.0%	D: 5.3%
COc1cc(OC)c(OC)cc1CN1CCN(Cc2cccn2C)CC1
  A: -121.8*	B: 10.4	C: 2.1%	D: -14.9%
COc1cc(OC)c(OC)cc1CN1CCC(O)CC1
  A: 3.3	B: -89.9*	C: ?	D: -12.1%
CC(C)C(=O)N[C@@H]1c2ccccc2CC[C@@H]1O
  A: 0.9	B: -0.1	C: 0.5%	D: 4.4%
COc1ccc(N(CC(O)Cn2c(C)nc3ccccc32)S(=O)(=O)c2ccc(C)cc2)cc1 (centres undefined)
  A: ?	B: -101.7*	C: 0.2%	D: -4.1%

Short keys – A = KCNH2 WT inh; B = KCNH2 3.1 block; C = Rango-impB inh; D = Rango release inh
Cc1ccc(S(=O)(=O)N(CC(O)CN2CCCCC2)c2ccccc2)cc1 (centres undefined)
  A: 24.0	B: -32.4	C: 0.7%	D: -3.5%
CCCN(CCC)CC(O)CN(c1ccccc1)S(=O)(=O)c1ccc(C)cc1 (centres undefined)
  A: -96.3*	B: -80.6*	C: 1.0%	D: -10.0%
O=C1CCC(C(=O)Nc2ccc([N+](=O)[O-])cc2)N1 (centres undefined)
  A: -21.5	B: 13.9	C: ?	D: -15.7%
COc1c(C)cc(S(=O)(=O)N2CCOCC2)c(C)c1C
  A: -3.7	B: -171.9*	C: 1.9%	D: 11.5%
COc1c(C)cc(S(=O)(=O)N2CCCC2)c(C)c1C
  A: 0.6	B: -13.3	C: 6.4%	D: 3.5%
COC(=O)c1cc(NC(=O)COC(=O)C2COc3ccccc3O2)cc(C(=O)OC)c1 (centres undefined)
  A: -9.9	B: 6.7	C: 6.4%	D: -1.7%
O=C(C1=C[C@@H](c2ccc(C(F)(F)F)cc2)C[C@@H](OCCCCO)O1)N1CCN(Cc2ccccc2)CC1
  A: 1.1	B: -123.2*	C: 6.7%	D: -11.9%
COc1ccc2c(C)cc(SCC(=O)N3CCOCC3)nc2c1
  A: 0.7	B: -20.2	C: 32.6µM*	D: -8.5%
Cc1cccc(C(=O)Nc2nnc(-c3ccc(C(C)(C)C)cc3)s2)c1
  A: -2.8	B: -89.0*	C: -3.1%	D: 29.1%
CC1CN(C)C(C)C/C1=N\Oc1ccc([N+](=O)[O-])cc1 (centres undefined)
  A: -14.5	B: -88.0*	C: -4.2%	D: 0.5%
O=C(c1cc(=O)[nH]c2ccccc12)N1CCN(S(=O)(=O)c2ccc(Cl)cc2)CC1
  A: -115.2*	B: -8.7	C: 0.7%	D: 0.1%
COC(=O)[C@@]1(C)[C@H]2C(=O)N(Cc3ccccc3)C(=O)[C@H]2[C@H]2CN=C(SCC(=O)c3ccccc3)N21
  A: -3.1	B: -79.6*	C: -0.4%	D: -5.8%
O=S(=O)(Nc1cccc2nsnc12)c1ccccc1
  A: 9.1	B: -19.0	C: 29.1µM*	D: 24.6%
Cc1cc(C)c(S(=O)(=O)N2CCCc3ccccc32)c(C)c1
  A: -6.5	B: -94.8*	C: -0.5%	D: -8.5%
Clc1nnc(NC2CCCCC2)c(Cl)c1Cl
  A: 10.8	B: -77.2*	C: nt	D: nt
Cc1cccnc1NC1CCCCC1
  A: nt	B: -12.7	C: 0.8%	D: 2.3%
c1ccc2c(NC3CCCC3)nnc(NC3CCCC3)c2c1
  A: 6.9	B: -81.9*	C: 0.1%	D: -0.6%
Cc1ccc2c(c1C)NC(=O)C21N2CCCC2C(C(=O)c2ccc3ccccc3c2)C12C(=O)Nc1ccccc12 (centres undefined)
  A: -5.0	B: -86.5*	C: 0.4%	D: 9.3%
CC(=O)c1cccc(S(=O)(=O)N2CCN(c3nc4cc(C)cc(C)c4cc3C#N)CC2)c1
  A: -2.5	B: 10.3	C: ?	D: 5.5%
Cc1cc(C)c2cc(C#N)c(N3CCCN(S(=O)(=O)c4ccccc4)CC3)nc2c1
  A: -18.8	B: -70.3*	C: -1.6%	D: ?
CC(=O)C[C@@H](O)CC(=O)[C@H]1OC(=O)[C@H](C)CCCCc2ccccc21
  A: 0.4	B: -0.1	C: -2.2%	D: 10.6%
Cc1c(-c2ccccc2)oc2c(C(=O)N3CCN(c4ccc([N+](=O)[O-])cc4)CC3)cccc2c1=O
  A: -103.1*	B: -70.8*	C: ?	D: -7.6%
O=C(C1COc2ccccc2O1)N1CCN(c2ccc(F)cc2)CC1 (centres undefined)
  A: 4.6	B: 40.3	C: 2.9%	D: -13.1%
O=C(C1COc2ccccc2O1)N1CCN(c2ccc([N+](=O)[O-])cc2)CC1 (centres undefined)
  A: 3.4	B: -73.2*	C: 0.0%	D: -10.8%
Cc1c(C(=O)N2CCN(c3ccc([N+](=O)[O-])cc3)CC2)oc2ccccc12
  A: -18.3	B: -73.2*	C: ?	D: 0.2%

Reprinted from above (two entries):
Short keys – A = KCNH2 WT inh; B = KCNH2 3.1 block; C = Rango-impB inh; D = Rango release inh
CC(=O)Nc1ccc(OCC(O)Cn2cccn2)cc1 (centres undefined)
  A: -1.1	B: -200.9*	C: -0.1%	D: -5.7%
CC(=O)Nc1ccc(OCC(O)Cn2ccnc2)cc1 (centres undefined)
  A: 7.1	B: 9.1	C: -2.6%	D: 6.4%

Results in Rango release inh and Rango-impB inh, for some of the entries so far:
| canonical_smiles | Rango release inh | Rango-impB inh |
| --- | --- | --- |
| Cc1ccc2c(c1C)NC(=O)C21N2CCCC2C(C(=O)c2ccc3ccccc3c2)C12C(=O)Nc1ccccc12 (centres undefined) | 9.3% | 0.4% |
| c1ccc2c(NC3CCCC3)nnc(NC3CCCC3)c2c1 | -0.6% | 0.1% |
| O=C(C1COc2ccccc2O1)N1CCN(c2ccc([N+](=O)[O-])cc2)CC1 (centres undefined) | -10.8% | 0.0% |
